Earlier results, collected in PMC2885539 (Archives of biochemistry and biophysics, 2010).

Conditions: ions, ref [16]; cited from earlier work

Substance: SO4^2−
- effect of static compression on diffusivity: reduced the diffusivities
